Source: patent publication US10407381B2 (THE BOARD OF TRUSTEES OF THE UNIVERSITY OF ILLINOIS, priority 2015, dated 2019)

Protein sequences, listed by entry. Tags and fused reporters are not part of them. Residues count along the entry.
UniProt P41595, whole entry: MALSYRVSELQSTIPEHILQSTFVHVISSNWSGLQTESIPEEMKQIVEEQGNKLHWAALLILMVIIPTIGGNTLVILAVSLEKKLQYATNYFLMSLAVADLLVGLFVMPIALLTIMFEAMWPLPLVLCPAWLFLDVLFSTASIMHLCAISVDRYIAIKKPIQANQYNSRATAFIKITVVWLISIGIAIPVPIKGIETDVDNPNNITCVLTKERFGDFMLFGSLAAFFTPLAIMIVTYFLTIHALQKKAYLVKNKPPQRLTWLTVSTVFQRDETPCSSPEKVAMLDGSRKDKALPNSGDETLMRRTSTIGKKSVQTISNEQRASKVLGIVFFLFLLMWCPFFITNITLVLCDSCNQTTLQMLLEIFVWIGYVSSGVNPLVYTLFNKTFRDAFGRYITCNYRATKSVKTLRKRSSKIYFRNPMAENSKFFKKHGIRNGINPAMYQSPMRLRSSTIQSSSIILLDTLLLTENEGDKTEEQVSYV
UniProt P28223, whole entry: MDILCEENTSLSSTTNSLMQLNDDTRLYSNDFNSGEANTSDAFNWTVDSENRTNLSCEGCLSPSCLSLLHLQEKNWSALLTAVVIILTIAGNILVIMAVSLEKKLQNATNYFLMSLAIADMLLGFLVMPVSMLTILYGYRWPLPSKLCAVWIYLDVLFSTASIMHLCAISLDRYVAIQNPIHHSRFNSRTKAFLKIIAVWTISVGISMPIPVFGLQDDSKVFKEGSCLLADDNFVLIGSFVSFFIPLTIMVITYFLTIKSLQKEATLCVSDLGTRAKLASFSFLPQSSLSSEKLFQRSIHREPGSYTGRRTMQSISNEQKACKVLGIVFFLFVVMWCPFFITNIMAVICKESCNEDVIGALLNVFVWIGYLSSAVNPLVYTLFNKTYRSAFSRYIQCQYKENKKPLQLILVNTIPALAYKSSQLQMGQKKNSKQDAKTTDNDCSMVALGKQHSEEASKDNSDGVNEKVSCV
UniProt P28335, 33-458: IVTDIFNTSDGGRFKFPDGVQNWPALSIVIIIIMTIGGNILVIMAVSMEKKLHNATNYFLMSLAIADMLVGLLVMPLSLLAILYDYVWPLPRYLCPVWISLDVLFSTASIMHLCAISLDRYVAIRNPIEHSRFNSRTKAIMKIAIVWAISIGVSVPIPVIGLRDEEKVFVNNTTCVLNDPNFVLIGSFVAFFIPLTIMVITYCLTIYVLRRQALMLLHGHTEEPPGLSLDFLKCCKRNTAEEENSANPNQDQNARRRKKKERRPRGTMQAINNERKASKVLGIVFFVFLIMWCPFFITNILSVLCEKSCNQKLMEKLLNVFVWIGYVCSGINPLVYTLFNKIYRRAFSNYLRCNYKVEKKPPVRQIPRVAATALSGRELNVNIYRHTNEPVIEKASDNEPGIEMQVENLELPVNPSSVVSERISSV

Experiments:
[1] = molecular target: 5-HT2B (Homo sapiens, UniProt P41595); experiment: Calcium flux (FLIPR) assay, human 5-HT2B stably expressed in HEK-293 (Flp-In-293) cells
[2] = molecular target: 5-HT2A (Homo sapiens, UniProt P28223); experiment: Calcium flux (FLIPR) assay, human 5-HT2A stably expressed in HEK-293 (Flp-In-293) cells
[3] = molecular target: human 5-HT2C-INI (Homo sapiens, UniProt P28335); experiment: Calcium flux (FLIPR) assay, human 5-HT2C-INI stably expressed in HEK-293 (Flp-In-293) cells

How did the “Emax, % 5-HT 5-HT2B” value [1] turn out when C=CCOc1cc(F)c(F)cc1C1CC1CN (single isomer, unassigned; (+)) [(+)-Example 44, (+)-(2-(2-(Allyloxy)-4,5-difluorophenyl)cyclopropyl)methanamine] was run?
The value was “(35%) % 5-HT”.

What about the “Emax, % 5-HT 5-HT2A” value [2] of the same compound?
Its value is “(21%) % 5-HT”.

And the “Emax, % 5-HT 5-HT2C” value [3]?
The value was “(97%) % 5-HT”.

How did the “Emax, % 5-HT 5-HT2A” value [2] turn out when C=CCOc1cc(F)c(F)cc1C1CC1CN (single isomer, unassigned; (-)) [(−)-Example 44, (−)-(2-(2-(Allyloxy)-4,5-difluorophenyl)cyclopropyl)methanamine] was run?
Its value is “(17%) % 5-HT”.

And the “Emax, % 5-HT 5-HT2C” value [3]?
Its value is “(94%) % 5-HT”.
